Molecular target: T1, Polyunsaturated fatty acid 5-lipoxygenase (Rattus norvegicus, UniProt P12527)
T1 sequence (P12527 whole entry): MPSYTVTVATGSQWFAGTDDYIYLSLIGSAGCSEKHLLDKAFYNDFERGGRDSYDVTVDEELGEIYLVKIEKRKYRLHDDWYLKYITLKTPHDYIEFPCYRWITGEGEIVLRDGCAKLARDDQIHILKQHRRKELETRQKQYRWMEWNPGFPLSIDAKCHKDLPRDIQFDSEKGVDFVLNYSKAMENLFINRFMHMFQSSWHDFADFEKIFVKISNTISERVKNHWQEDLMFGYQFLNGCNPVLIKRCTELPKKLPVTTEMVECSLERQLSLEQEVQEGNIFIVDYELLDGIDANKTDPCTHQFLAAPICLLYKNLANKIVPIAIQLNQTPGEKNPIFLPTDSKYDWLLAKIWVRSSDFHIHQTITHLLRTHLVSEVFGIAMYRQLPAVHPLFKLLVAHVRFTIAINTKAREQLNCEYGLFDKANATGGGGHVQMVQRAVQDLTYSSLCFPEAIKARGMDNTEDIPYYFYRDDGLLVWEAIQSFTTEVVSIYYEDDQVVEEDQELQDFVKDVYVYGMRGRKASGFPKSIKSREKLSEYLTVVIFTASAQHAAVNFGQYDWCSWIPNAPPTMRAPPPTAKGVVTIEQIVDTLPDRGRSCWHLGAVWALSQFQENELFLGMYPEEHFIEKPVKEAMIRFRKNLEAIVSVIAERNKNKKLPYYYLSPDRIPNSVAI
Assay: Tested for its inhibitory activity against 5-lipoxygenase

CCN(CC)CCCC(C)Nc1c2ccc(Cl)cc2nc2ccc(OC)cc12 (stereo unspecified) [QUINACRINE]
IC50: 130 µM

Source: ChEMBL document CHEMBL1149986, “Topical antiinflammatory dehydroabietylamine derivatives. IV” (Bioorg Med Chem Lett, 1993)
